What was measured:
[1] = Terminal half life in B6 mouse at 50 mg/kg, po by UV-HPLC analysis; format: ADME, organism-based; conditions: in vivo, read-out: beta t1/2 (converted)
[2] = Terminal half life in B6 mouse at 25 mg/kg, ip by UV-HPLC analysis; format: ADME, organism-based; conditions: in vivo, read-out: beta t1/2 (converted)

What does the source list for `O=C(Nc1cccc(Oc2ccc3c(/C=C/c4c[nH]cn4)n[nH]c3c2)c1)c1ccccc1`?
half-life [1]: 1.1 h; half-life [2]: 3.7 h
